This note sets out measurements from US20260001922A1, “PEPTIDES TARGETING SODIUM CHANNELS TO TREAT PAIN” (priority 2022, published 2026).

Chains of the proteins cited; added tags and fusions are not shown. Lines headed by an entry give the natural chain unless they say otherwise; changes in a name come on top.
UniProt Q14524, whole entry: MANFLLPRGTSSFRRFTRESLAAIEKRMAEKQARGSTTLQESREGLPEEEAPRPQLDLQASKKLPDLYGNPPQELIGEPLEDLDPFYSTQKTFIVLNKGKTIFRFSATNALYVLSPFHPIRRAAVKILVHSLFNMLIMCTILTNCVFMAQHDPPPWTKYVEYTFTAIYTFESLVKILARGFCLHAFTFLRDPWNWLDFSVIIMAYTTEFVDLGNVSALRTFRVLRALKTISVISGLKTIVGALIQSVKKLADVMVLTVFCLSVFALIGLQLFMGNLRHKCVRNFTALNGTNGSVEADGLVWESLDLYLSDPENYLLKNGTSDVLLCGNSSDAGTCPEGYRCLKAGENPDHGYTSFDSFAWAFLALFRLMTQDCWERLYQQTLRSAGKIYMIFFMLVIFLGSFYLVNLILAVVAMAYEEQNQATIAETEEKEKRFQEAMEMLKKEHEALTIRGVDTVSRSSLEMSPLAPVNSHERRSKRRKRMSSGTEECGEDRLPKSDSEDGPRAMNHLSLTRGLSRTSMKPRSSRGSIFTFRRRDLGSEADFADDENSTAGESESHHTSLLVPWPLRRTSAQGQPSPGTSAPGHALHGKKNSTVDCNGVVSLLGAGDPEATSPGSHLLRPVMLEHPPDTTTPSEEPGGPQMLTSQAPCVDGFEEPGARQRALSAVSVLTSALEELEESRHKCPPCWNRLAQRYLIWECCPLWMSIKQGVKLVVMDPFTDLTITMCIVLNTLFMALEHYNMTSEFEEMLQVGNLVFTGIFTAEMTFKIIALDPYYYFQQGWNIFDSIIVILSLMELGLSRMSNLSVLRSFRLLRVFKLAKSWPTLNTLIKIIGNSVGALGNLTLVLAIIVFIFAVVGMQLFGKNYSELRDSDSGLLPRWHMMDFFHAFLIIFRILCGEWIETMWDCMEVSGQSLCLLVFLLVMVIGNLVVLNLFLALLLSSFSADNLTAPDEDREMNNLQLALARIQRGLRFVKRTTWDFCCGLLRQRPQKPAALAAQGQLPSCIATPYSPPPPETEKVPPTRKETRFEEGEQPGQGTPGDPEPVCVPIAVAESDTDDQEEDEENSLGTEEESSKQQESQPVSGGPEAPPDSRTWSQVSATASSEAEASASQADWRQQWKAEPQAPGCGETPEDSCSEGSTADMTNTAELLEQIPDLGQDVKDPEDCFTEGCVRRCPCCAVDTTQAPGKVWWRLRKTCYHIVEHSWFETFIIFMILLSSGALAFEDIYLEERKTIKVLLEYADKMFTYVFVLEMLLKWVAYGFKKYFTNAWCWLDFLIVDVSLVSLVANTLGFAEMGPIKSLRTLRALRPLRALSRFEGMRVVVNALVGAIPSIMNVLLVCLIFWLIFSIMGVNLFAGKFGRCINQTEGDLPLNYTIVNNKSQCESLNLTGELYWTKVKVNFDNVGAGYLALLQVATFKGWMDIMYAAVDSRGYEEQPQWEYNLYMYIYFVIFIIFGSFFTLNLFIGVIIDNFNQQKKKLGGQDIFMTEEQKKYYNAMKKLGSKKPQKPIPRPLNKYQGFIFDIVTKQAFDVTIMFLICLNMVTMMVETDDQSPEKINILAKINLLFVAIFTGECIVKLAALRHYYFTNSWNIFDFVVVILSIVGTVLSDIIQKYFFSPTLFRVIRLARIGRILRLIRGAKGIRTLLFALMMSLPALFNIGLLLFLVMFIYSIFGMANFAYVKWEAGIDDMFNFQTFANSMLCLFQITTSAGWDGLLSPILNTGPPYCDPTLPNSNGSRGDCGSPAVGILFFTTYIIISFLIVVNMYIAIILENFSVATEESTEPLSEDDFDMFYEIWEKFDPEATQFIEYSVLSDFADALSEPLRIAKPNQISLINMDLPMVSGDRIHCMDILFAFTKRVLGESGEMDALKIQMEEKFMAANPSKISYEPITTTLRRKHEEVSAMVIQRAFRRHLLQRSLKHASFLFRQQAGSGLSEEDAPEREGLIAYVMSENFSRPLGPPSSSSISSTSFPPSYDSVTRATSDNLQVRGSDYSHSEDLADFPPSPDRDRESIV
UniProt Q12809: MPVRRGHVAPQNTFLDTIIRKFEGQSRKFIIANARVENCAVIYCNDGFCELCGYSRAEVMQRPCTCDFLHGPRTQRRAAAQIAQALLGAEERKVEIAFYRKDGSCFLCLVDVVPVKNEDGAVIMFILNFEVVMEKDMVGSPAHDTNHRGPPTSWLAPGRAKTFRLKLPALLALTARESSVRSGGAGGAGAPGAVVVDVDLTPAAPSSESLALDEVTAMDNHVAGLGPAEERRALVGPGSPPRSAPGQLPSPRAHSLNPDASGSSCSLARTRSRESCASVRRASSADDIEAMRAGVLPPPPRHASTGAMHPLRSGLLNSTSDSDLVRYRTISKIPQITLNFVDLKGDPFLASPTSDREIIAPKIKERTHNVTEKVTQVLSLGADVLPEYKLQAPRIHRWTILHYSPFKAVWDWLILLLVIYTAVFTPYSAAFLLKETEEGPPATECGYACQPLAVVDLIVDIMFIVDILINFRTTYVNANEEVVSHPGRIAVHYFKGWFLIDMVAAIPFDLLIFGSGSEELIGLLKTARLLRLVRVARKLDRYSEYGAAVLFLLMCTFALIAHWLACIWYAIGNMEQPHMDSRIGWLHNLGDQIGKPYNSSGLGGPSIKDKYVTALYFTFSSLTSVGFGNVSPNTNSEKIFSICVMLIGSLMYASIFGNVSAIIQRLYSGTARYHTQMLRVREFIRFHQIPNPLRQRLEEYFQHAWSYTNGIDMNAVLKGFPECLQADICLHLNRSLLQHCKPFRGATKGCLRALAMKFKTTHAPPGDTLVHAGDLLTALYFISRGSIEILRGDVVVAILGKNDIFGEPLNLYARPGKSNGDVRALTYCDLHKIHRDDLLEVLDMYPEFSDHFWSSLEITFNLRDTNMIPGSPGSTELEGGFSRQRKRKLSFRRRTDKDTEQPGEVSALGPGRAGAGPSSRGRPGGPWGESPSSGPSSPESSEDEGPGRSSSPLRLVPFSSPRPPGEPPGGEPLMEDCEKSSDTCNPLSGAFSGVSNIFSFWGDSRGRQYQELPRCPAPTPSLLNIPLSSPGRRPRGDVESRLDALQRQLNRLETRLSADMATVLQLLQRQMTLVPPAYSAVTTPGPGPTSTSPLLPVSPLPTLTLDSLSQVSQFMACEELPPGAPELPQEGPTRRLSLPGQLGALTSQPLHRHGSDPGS

SMILES strings stand for the structures.

The target in one data set is human Nav1.5 (Homo sapiens, UniProt Q14524). The data set can be described thus: in vitro. Type of data set: cell-based.
For the next data set, the target named is hERG channel (Homo sapiens, UniProt Q12809).

Usually IC50 stands for the concentration that gives 50% inhibition. `CSCC[C@@H]1NC(=O)[C@H](Cc2c[nH]c3ccccc23)NC(=O)[C@H](CCCCN)NC(=O)[C@H](CCC(N)=O)NC(=O)[C@@H](NC(=O)[C@@H](N)CCC(N)=O)CSSC[C@@H]2NC(=O)[C@@H]3CSSC[C@@H](C(=O)N[C@@H](CCCNC(=N)N)C(=O)N[C@@H](CCCCN)C(=O)N[C@@H](CCC(=O)O)C(=O)N[C@@H](CC(C)C)C(=O)N[C@@H](CC(C)C)C(N)=O)NC(=O)[C@H](Cc4c[nH]c5ccccc45)NC(=O)[C@H](CC(C)C)NC(=O)[C@H](CCCNC(=N)N)NC(=O)[C@H](CSSC[C@H](NC(=O)[C@H]([C@@H](C)O)NC(=O)[C@H](CCC(N)=O)NC1=O)C(=O)N[C@@H](CC(=O)O)C(=O)N[C@@H](CCCCN)C(=O)N[C@@H](CC(=O)O)C(=O)N[C@@H](CCCNC(=N)N)C(=O)N[C@@H](CCCCN)C(=O)N3)NC(=O)[C@H](CCCNC(=N)N)NC(=O)[C@H](Cc1ccccc1)NC(=O)CNC(=O)[C@H](CCC(=O)O)NC2=O` [PTx2-3127]: the 50% inhibitory concentration (IC50) at human Nav1.5 (pH 7.4) is 137 µM; at human Nav1.5 (pH 7.4, hNav1.5 IC50), over 130 µM.
Compound `CSCC[C@@H]1NC(=O)[C@H](Cc2c[nH]c3ccccc23)NC(=O)[C@H](CCCCN)NC(=O)[C@H](CCC(N)=O)NC(=O)[C@@H](NC(=O)[C@@H](N)Cc2c[nH]cn2)CSSC[C@@H]2NC(=O)[C@@H]3CSSC[C@@H](C(=O)N[C@@H](CCCNC(=N)N)C(=O)N[C@@H](CCCCN)C(=O)N[C@@H](CCC(=O)O)C(=O)N[C@@H](CC(C)C)C(=O)N[C@@H](CC(C)C)C(N)=O)NC(=O)[C@H](Cc4c[nH]c5ccccc45)NC(=O)[C@H](CC(C)C)NC(=O)[C@H](CCCNC(=N)N)NC(=O)[C@H](CSSC[C@H](NC(=O)[C@H]([C@@H](C)O)NC(=O)[C@H](CCC(N)=O)NC1=O)C(=O)N[C@@H](CC(=O)O)C(=O)N[C@@H](CCCCN)C(=O)N[C@@H](CC(=O)O)C(=O)N[C@@H](CCCNC(=N)N)C(=O)N[C@@H](CCCCN)C(=O)N3)NC(=O)[C@H](CCCNC(=N)N)NC(=O)[C@H](Cc1ccccc1)NC(=O)CNC(=O)[C@H](CCC(=O)O)NC2=O` [PTx2-3258] registered an IC50 against hERG channel of 1.86 µM.
